Literature values as cited in publication PMC8608967, “KDS2010, a Newly Developed Reversible MAO-B Inhibitor, as an Effective Therapeutic Candidate for Parkinson’s Disease” (Neurotherapeutics, 2021).

Experiments:
[1] = system: APP/PS1 transgenic mouse model of AD; set-up: method as in PMID 30906861; conditions: long-term treatment (> 2 weeks); cited from earlier work
[2] = system: MPTP-induced PD mouse model; conditions: post-treatment or pre-treatment; cited from earlier work

For `C#CCN(C)[C@H](C)Cc1ccccc1` [selegiline, reference compound], the “therapeutic effect of long-term treatment” value [1] is given as “no therapeutic effect” and the “therapeutic efficacy in the MPTP model” value [2] is given as “significant therapeutic efficacy”.
